US5128493A, “Platinum complexes” (Nippon Kayaku Kabushiki Kaisha, priority 1987, dated 1992)

Tests used:
[1] = mouse, in vivo, ip

## cis-Cyclobutane-1,1-dicarboxylato-2,3-dimethyl-1,4-butanediamine Platinum [Compound No. 4]
other
  Solubility in water: > 5000 µg/mL
[1]
  Body weight ratio: 0.89
